According to article PMC6664820, “Novel natural and synthetic inhibitors of solute carriers SGLT1 and SGLT2” (Pharmacology Research & Perspectives, 2019):
Shown are results outside the selection of strong results, which stands elsewhere.

Amino acid sequences for entries named in this document (tags omitted). A change or cut given only in a name is not applied to a line headed by its entry.
UniProt P13866: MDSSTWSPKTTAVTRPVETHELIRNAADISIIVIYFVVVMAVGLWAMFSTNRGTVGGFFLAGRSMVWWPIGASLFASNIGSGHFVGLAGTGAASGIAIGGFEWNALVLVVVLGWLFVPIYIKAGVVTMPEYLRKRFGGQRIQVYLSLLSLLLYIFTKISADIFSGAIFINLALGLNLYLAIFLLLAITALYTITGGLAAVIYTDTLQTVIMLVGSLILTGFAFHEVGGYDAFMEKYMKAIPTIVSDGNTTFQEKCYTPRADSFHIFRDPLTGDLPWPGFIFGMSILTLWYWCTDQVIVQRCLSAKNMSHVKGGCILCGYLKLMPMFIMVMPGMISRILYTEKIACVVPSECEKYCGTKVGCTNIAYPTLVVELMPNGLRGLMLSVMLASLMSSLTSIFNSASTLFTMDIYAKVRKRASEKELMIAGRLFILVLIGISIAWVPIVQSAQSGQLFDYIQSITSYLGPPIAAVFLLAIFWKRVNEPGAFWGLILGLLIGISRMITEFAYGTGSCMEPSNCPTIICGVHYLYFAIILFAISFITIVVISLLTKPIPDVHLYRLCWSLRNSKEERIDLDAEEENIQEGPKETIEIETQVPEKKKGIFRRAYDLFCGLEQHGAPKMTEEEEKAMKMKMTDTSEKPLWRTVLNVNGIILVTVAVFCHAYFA

Biological target: human SGLT1 (hSGLT1) (human, UniProt P13866)
Test: primary screen, percent of control activity; higher = less effect of the substance
Parameters: single well
Details: 50 µM

Compound | NORMALIZED SGLT1 ACTIVITY (%)
CC(C)C[C@H](NC(=O)[C@@H]1CCCN1C(=O)[C@@H](N)C(C)C)C(=O)O | 112%
